Experimental data from ChEMBL document CHEMBL1777750, “Design strategies to target crystallographic waters applied to the Hsp90 molecular chaperone” (Bioorg Med Chem Lett, 2011).
pKd: −log10 of the molar value.

Test: Binding affinity to HSP90 by isothermal titration calorimetry assay

pKd: 7.08
SMILES: COc1cc(-c2cc(C)nc(N)n2)c(Cl)cc1Cl
